Source: US9913827B2, “Bendamustine derivatives and methods of using same” (IGNYTA, INC., priority 2012, dated 2018)
Marks after values point to notes of the source that are not given here.

Test system: RPMI 8226 (Human Plasmacytoma, Myeloma B Cells)
Type: in vivo, CB.17 SCID female mice
Conditions: day 46; 0.5 mg/kg i.v. biwk

## CC(C)C[C@H](NC(=O)[C@H](Cc1ccccc1)NC(=O)c1cnccn1)B(O)O [Velcade ®, Bortezomib]
  % TGI: 62*** %
  No. of CR: 0
  No. of PR: 0
  Δ mean tumor volume, (mean ± se): 226 ± 35
